Results from US9095541B2, “Brain tumor targeting peptides and methods” (Arch Cancer Therapeutics, Inc., priority 2009, dated 2015).

Tested on: U87R cells
Assay: Transwell migration assay through brain-like matrix coated membranes, U87R
Assay type: cell-based, human
Details: cholesterol oxidase 1.8 U/mL, 4 hours
Method: Plating serial dilutions of phage with host bacteria on agarose plates was used to isolate phage subclones. Individual clones were isolated, amplified and tested for their inhibitory ability in in vitro invasion assays. […] Assessing the effects of LPS or random phage controlled for potential contamination by the host bacterial culture;
FIG. 3A is a bar graph showing that cholesterol oxidase inhibits cell migration. The invasive U87R cells were plated on matrix-coated transwell membranes and treated with cholesterol oxidase (1.8 U/mL) for 4 hours. Cells that migrated to the underside of the transwell membrane were stained with crystal violet and counted by light microscopy;
The membranes of 8 μm pore sized transwell inserts (Corning Costar) were coated with brain-like matrix (720 μL of 3 mg/mL collagen I (PureCol); 180 μL of 10×DMEM (Invitrogen); 9 uL of 1 mg/mL human plasma fibronectin (Sigma); 9 uL of 1 mg/mL chondroitin sulfate proteoglycans (Chemicon); 16 μL of 0.15 mg/mL laminin (Chemicon)) on both sides, allowed to dry, then plated with 5×10^4 cells in 100 μL media in the upper chamber and 500 μL media in the lower chamber. Inclusion of collagen was essential to see the inhibitory effect of H10 (FIG. S4). […] Cells which had migrated to the undersurface of the membranes were counted by light microscopy, and the sum of cells in five microscopic fields was recorded for each membrane.

In the case of cholesterol oxidase, the “migration of U87R cells” value is reported as “abrogated”.
